## Curated experimental data: vapor pressure values

Source: data files of OPERA 2.9 (Mansouri et al.), github.com/kmansouri/OPERA.

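The OPERA project collected these measurements from public sources as training and test data for property models. A listed value is a point estimate from one report or more. Method, purity and exact conditions of the single measurements are not given. A value may pool stereoisomers or salt forms, and the file does not say which form was measured. Unmarked limits or estimates from the upstream databases cannot be ruled out.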

Vapor pressure is log10 of mmHg; the set covers 15 to 30 °C, mostly 20 to 25 °C.

{"smiles": "CC(C)(c1ccc(OCCO)cc1)c1ccc(OCCO)cc1", "vapor pressure (log10 mmHg)": "-8.454"}
{"smiles": "C=CCCCCCCO", "name": "Oct-7-en-1-ol", "vapor pressure (log10 mmHg)": "0.065"}
{"smiles": "NCCNCc1ccccc1", "name": "N-Benzylethylenediamine", "vapor pressure (log10 mmHg)": "-2.28"}
{"smiles": "O=C(O)c1cccc([N+](=O)[O-])c1", "name": "3-Nitrobenzoic acid", "vapor pressure (log10 mmHg)": "-4.435"}
{"smiles": "CC(N)c1ccccc1", "stereo": "stereo not given", "name": "(1-Aminoethyl)benzene", "vapor pressure (log10 mmHg)": "-0.45"}
{"smiles": "CC(C)(C)c1ccc([I+]c2ccc(C(C)(C)C)cc2)cc1.F[P-](F)(F)(F)(F)F", "name": "Bis(4-tert-butylphenyl)iodanium hexafluorophosphate", "vapor pressure (log10 mmHg)": "-5.71"}
{"smiles": "FC(F)CCl", "name": "Ethane, 2-chloro-1,1-difluoro-", "vapor pressure (log10 mmHg)": "2.647"}
{"smiles": "COCC(C)N", "stereo": "stereo not given", "name": "1-Methoxy-2-propylamine", "vapor pressure (log10 mmHg)": "1.519"}
{"smiles": "C=C(C)C(C)(C)O", "name": "2,3-Dimethyl-3-buten-2-ol", "vapor pressure (log10 mmHg)": "0.966"}
{"smiles": "O=C1C=CC(=O)N1c1ccc(Cc2ccc(N3C(=O)C=CC3=O)cc2)cc1", "name": "Bismaleimide", "vapor pressure (log10 mmHg)": "-9.046"}
{"smiles": "Clc1cc(Cl)c(Cl)c(-c2cc(Cl)c(Cl)c(Cl)c2)c1", "name": "2,3,3',4',5,5'-Hexachlorobiphenyl", "vapor pressure (log10 mmHg)": "-4.983"}
{"smiles": "CCCC[C@H]1CO[C@H](c2ccc(-c3cc(F)c(C(F)(F)Oc4cc(F)c(F)c(F)c4)c(F)c3)c(F)c2)OC1", "vapor pressure (log10 mmHg)": "-9.774"}
{"smiles": "CC(N)(CO)CO", "name": "1,3-Propanediol, 2-amino-2-methyl-", "vapor pressure (log10 mmHg)": "-3.763"}
{"smiles": "CCOC(=O)[C@@H]1[C@@H](C(C)C)[C@@H]2C=C[C@H]1C2", "vapor pressure (log10 mmHg)": "0.201"}
{"smiles": "CCB(CC)c1cccnc1", "name": "Diethyl(3-pyridyl)borane", "vapor pressure (log10 mmHg)": "-9.907"}
{"smiles": "CCCCCCCC(=O)NCCC[N+](C)(C)CC(=O)[O-]", "vapor pressure (log10 mmHg)": "-5.084"}
{"smiles": "CCCCC/C=C/CCC=O", "name": "4-Decenal, (4E)-", "vapor pressure (log10 mmHg)": "-1.018"}
{"smiles": "COC(=O)c1ccccc1C", "name": "Methyl 2-methylbenzoate", "vapor pressure (log10 mmHg)": "-1.014"}
{"smiles": "N#Cc1c(F)cccc1F", "name": "2,6-Difluorobenzonitrile", "vapor pressure (log10 mmHg)": "-0.87"}
{"smiles": "O=C(Cl)c1ccc(C(=O)Cl)cc1", "name": "1,4-Benzenedicarbonyl dichloride", "vapor pressure (log10 mmHg)": "-2.952"}
{"smiles": "CCC(C(=O)O)c1ccc(N2C(=O)c3ccccc3C2=O)cc1", "stereo": "stereo not given", "vapor pressure (log10 mmHg)": "-9.639"}
{"smiles": "O=S(=O)(F)C(F)(F)C(F)(F)OC(F)=C(F)F", "name": "Perfluoro(3-oxapent-4-ene)sulfonyl fluoride", "vapor pressure (log10 mmHg)": "2.003"}
{"smiles": "O=C(O)CCCCCCCCCCCC(=O)O", "name": "Tridecanedioic acid", "vapor pressure (log10 mmHg)": "-9.147"}
{"smiles": "Brc1cccc(Oc2ccc(Br)c(Br)c2)c1", "name": "BDE-35", "vapor pressure (log10 mmHg)": "-4.983"}
{"smiles": "CCc1ccc(-c2ccc(B(O)O)c(F)c2)cc1", "name": "(4'-Ethyl-3-fluoro[1,1'-biphenyl]-4-yl)boronic acid", "vapor pressure (log10 mmHg)": "-12.15"}
{"smiles": "COc1ccc(CCC(=O)c2c(O)cc(O[C@@H]3O[C@H](CO)[C@@H](O)[C@H](O)[C@H]3O[C@@H]3O[C@@H](C)[C@H](O)[C@@H](O)[C@H]3O)cc2O)cc1O", "name": "Neohesperidin dihydrochalcone", "vapor pressure (log10 mmHg)": "-12.09"}
{"smiles": "Brc1ccc(Oc2ccccc2Br)cc1", "name": "1-Bromo-2-(4-bromophenoxy)benzene", "vapor pressure (log10 mmHg)": "-3.985"}
{"smiles": "CCCCCCCOCC(C)CC=O", "stereo": "stereo not given", "name": "Butanal, 4-(heptyloxy)-3-methyl-", "vapor pressure (log10 mmHg)": "-0.166"}

Again, the 2 entries with the lowest vapor pressure:

| compound | name | vapor pressure (log10 mmHg) |
|---|---|---|
| CCc1ccc(-c2ccc(B(O)O)c(F)c2)cc1 | (4'-Ethyl-3-fluoro[1,1'-biphenyl]-4-yl)boronic acid | -12.15 |
| COc1ccc(CCC(=O)c2c(O)cc(O[C@@H]3O[C@H](CO)[C@@H](O)[C@H](O)[C@H]3O[C@@H]3O[C@@H](C)[C@H](O)[C@@H](O)[C@H]3O)cc2O)cc1O | Neohesperidin dihydrochalcone | -12.09 |